# Measured affinities in a library of Ab-14 heavy chain variants

From the AlphaSeq antibody data of Li et al. 2023 (doi:10.1038/s41467-023-39022-2), copy in the FLAb collection.

Antigen: PDVDLGDISGINAS, a 14-residue peptide of the SARS-CoV-2 spike HR2 region.

Parent: Ab-14, a human scFv built as VH, a (GGGGS)3 linker, VL. Only the CDRs of the heavy chain vary.
VH: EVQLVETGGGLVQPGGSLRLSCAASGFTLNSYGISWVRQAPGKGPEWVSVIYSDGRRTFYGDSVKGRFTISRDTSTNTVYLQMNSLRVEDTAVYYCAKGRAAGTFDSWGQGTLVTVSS
VL: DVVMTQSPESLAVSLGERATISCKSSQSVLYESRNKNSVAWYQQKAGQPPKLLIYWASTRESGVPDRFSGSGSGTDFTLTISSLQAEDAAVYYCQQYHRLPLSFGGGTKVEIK

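Phage display of a naive human antibody library on the peptide gave the parent. This is the validation round: designs drawn from the data on random variants, tested in the same kind of assay. Their group label is 14H_GPLM_Gen (GPLM: also part of the Gaussian process libraries; Gen: genetic algorithm; a sequence that several methods proposed may carry one label only). Affinity was read by AlphaSeq, a pooled yeast mating assay with surface-displayed partners. Mating (16 h, 30 °C) was followed by selection of diploids and sequencing of their barcodes. A regression on co-assayed BCL2-family reference pairs converts the normalised counts of each replicate to an apparent Kd. There are six technical replicates.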

The whole VH of each variant is written out. Values are log10 of the apparent Kd in nM; lower means stronger binding. A mean of the replicates is given; it leaves out those without a signal. An entry "nd" has no value in the source: the pair was not observed among the diploids in that replicate. This suggests poor binding but is not conclusive. The range of this assay differs from that of the first round, and the authors advise against merging the two. The authors' rule: three or more of the six replicates give a measured affinity, fewer mean a poor binder. Empty control strains, which show no peptide, gave a signal in 1% of pairings with all heavy chain designs; the median was 2.08 and 95% of these signals were weaker than 0.84. No background was subtracted. The control count says in how many pairings with the empty strains this scFv gave a signal, with their mean in brackets.

| # | VH | replicates, log10 nM | mean log10 Kd (nM) | control signals |
|---|---|---|---|---|
| 1 | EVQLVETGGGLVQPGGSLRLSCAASGFSLNSYGISWVRQAPGKGPEWVSVIYADGRRTFYADSVKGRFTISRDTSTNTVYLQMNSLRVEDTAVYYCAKGQAAGTFDSWGQGTLVTVSS | -0.48 / -0.66 / -0.65 / -0.88 / -0.62 / -0.37 | -0.61 | 2/18 (2.66) |
| 2 | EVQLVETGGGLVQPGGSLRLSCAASGFSLNSYGISWVRQAPGKGPEWVSVIYSDGRRTFYADSVKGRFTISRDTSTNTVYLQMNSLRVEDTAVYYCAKGRTAGMFDSWGQGTLVTVSS | 2.26 / 1.93 / nd / 1.70 / 1.80 / 3.23 | 2.18 | 0/18 |
| 3 | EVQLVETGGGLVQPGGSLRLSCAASGFTLDSYGISWVRQAPGKGPEWVSVIYSDGRRTFYSDSVKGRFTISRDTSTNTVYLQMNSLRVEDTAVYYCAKGKAAGTFDSWGQGTLVTVSS | 0.39 / -0.75 / -0.43 / 0.55 / -0.39 / -0.17 | -0.13 | 0/18 |
| 4 | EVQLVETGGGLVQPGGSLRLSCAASGFQLNEYGISWVRQAPGKGPEWVSVIYSDGRRTFYGDSVKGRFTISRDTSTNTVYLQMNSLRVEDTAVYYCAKGQAAGTFDLWGQGTLVTVSS | 1.33 / nd / nd / 0.91 / nd / nd | 1.12 | 0/18 |
| 5 | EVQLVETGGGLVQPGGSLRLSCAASGFSLNSYGISWVRQAPGKGPEWVSVIYSDGRRTMYTDSVKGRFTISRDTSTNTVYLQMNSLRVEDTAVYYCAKGQAAGTFDSWGQGTLVTVSS | 0.73 / 0.96 / 0.60 / 0.63 / 0.46 / 0.68 | 0.68 | 0/18 |
| 6 | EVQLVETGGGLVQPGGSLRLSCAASGFSLNSYGISWVRQAPGKGPEWVSVIYSDGMRTFYGDSVKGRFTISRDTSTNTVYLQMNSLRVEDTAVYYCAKGRTAGTFDSWGQGTLVTVSS | 0.78 / 0.64 / 0.65 / 0.57 / 0.66 / 0.82 | 0.69 | 0/18 |
| 7 | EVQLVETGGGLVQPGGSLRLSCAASGFTLNSYGISWVRQAPGKGPEWVSVIYSDGRRTFYSDSVKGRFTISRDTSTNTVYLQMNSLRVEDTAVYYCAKGKAAGTFDSWGQGTLVTVSS | 1.31 / 1.38 / nd / 0.74 / 1.15 / 0.66 | 1.05 | 0/18 |
| 8 | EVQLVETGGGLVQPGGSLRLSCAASGFHLNSYGISWVRQAPGKGPEWVSVIYSDGRRTFYVDSVKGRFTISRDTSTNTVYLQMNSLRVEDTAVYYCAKGQAAGTFDSWGQGTLVTVSS | nd / nd / nd / nd / nd / nd | nd | 0/18 |
| 9 | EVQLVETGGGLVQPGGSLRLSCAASGFHLNSYGISWVRQAPGKGPEWVSVIYSDGRRTFYGDSVKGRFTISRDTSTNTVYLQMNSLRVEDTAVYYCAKGQTAGTFDSWGQGTLVTVSS | nd / 0.84 / 1.08 / 1.21 / 1.18 / nd | 1.08 | 0/18 |
| 10 | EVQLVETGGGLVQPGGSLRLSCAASGFVLNSYGISWVRQAPGKGPEWVSVIYSDGRRTFYSDSVKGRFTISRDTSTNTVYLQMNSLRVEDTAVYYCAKGQAAGTFDSWGQGTLVTVSS | 0.36 / nd / nd / nd / nd / nd | 0.36 | 0/18 |
| 11 | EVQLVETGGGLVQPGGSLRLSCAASGFSLNSYGISWVRQAPGKGPEWVSVIYSDGRRTFYADNVKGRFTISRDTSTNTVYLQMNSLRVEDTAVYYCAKGTAAGTFDSWGQGTLVTVSS | -0.51 / -0.64 / -0.83 / -1.05 / -0.99 / -0.84 | -0.81 | 0/18 |
| 12 | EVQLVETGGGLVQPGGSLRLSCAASGFSLNEYGISWVRQAPGKGPEWVSVIYSDGRRTFYGDSVKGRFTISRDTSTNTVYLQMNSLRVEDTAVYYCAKGSTAGTFDSWGQGTLVTVSS | -0.80 / -1.11 / -0.82 / -1.16 / -1.54 / 0.09 | -0.89 | 0/18 |
| 13 | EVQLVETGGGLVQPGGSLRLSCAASGFSLNSYGISWVRQAPGKGPEWVSVIYSDGRRTFYQDSVKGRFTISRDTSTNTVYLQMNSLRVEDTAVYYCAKGQTAGTFDSWGQGTLVTVSS | 2.59 / nd / nd / nd / nd / 1.97 | 2.28 | 0/18 |
| 14 | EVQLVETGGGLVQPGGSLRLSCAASGFSLNSYGISWVRQAPGKGPEWVSVIYSDGRRTFYGDSVKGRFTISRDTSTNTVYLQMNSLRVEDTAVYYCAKGKAAGTFDWWGQGTLVTVSS | nd / nd / nd / nd / nd / nd | nd | 1/18 (1.26) |
| 15 | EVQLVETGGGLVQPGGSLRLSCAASGFSLNSYGISWVRQAPGKGPEWVSVIYSDGMRTFYSDSVKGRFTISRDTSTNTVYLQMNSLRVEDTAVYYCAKGRTAGTFDSWGQGTLVTVSS | 0.47 / 0.42 / 0.53 / 0.42 / 0.35 / 0.46 | 0.44 | 1/18 (2.28) |
| 16 | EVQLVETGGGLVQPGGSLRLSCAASGFELNTYGISWVRQAPGKGPEWVSVIYSDGRRTFYGDSVKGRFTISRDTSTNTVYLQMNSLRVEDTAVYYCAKGRTAGTFDSWGQGTLVTVSS | nd / nd / nd / nd / nd / nd | nd | 0/18 |
| 17 | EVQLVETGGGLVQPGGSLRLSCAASGFSLNSYGISWVRQAPGKGPEWVSVIYADGRRTFYGDSVKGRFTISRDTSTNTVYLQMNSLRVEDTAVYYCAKGRTAGTFDSWGQGTLVTVSS | 0.18 / -0.11 / -0.32 / -0.22 / -0.01 / 0.12 | -0.06 | 0/18 |
| 18 | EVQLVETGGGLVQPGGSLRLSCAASGFSLNSYGISWVRQAPGKGPEWVSVIYSDGRRTFYCDSVKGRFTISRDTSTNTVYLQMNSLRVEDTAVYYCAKGEAAGTFDSWGQGTLVTVSS | 1.05 / 0.48 / 0.71 / 0.76 / 1.07 / 1.64 | 0.95 | 1/18 (2.48) |
| 19 | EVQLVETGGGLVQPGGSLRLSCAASGFSLNSYGISWVRQAPGKGPEWVSVIYSDGRRTFYADHVKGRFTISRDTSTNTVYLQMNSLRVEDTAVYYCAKGRTAGTFDSWGQGTLVTVSS | 1.07 / 0.52 / 0.64 / 0.41 / 0.40 / 0.82 | 0.64 | 0/18 |

Repeated from above, the 2 best binders with a signal in all replicates:

| VH | replicates, log10 nM | mean log10 Kd (nM) | control signals |
|---|---|---|---|
| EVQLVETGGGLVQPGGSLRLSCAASGFSLNEYGISWVRQAPGKGPEWVSVIYSDGRRTFYGDSVKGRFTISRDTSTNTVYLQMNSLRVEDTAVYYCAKGSTAGTFDSWGQGTLVTVSS | -0.80 / -1.11 / -0.82 / -1.16 / -1.54 / 0.09 | -0.89 | 0/18 |
| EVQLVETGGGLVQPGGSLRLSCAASGFSLNSYGISWVRQAPGKGPEWVSVIYSDGRRTFYADNVKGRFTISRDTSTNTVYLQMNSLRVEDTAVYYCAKGTAAGTFDSWGQGTLVTVSS | -0.51 / -0.64 / -0.83 / -1.05 / -0.99 / -0.84 | -0.81 | 0/18 |